Assays:
EMT6 = assay: Inhibitory activity against EMT6 murine cell line; format: functional, cell-based, Mus musculus
Method in brief: (§1)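 Aerobic growth inhibition of log-phase cells (parental NTR-negative lines). Cultures seeded 24 h before an 18 h drug exposure; cell density read 4–5 days later by sulforhodamine B staining. IC50 is the concentration giving 50% growth inhibition versus same-plate controls. Mean ± SEM of up to five independent experiments.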

SK-OV-3 = assay: Inhibitory activity was determined against SKOV3 cell line in human; format: functional, cell-based; method in brief: as §1
V79 = assay: Inhibitory activity was determined against V79 cell line in chinese hamster; format: functional, cell-based, Cricetulus griseus; method in brief: as §1
WiDr = assay: Inhibitory activity was determined against WiDr cell line in human; format: functional, cell-based; method in brief: as §1

Compound `Nc1ccc(N(CCCl)CCCl)cc1` has an IC50 (EMT6) of 1060 nM, an IC50 (SK-OV-3) of 3740 nM and an IC50 (V79) of 1900 nM. For the same compound, the IC50 (WiDr) was 3900 nM.

— ChEMBL document CHEMBL1145930, “Synthesis and evaluation of nitroheterocyclic carbamate prodrugs for use with nitroreductase-mediated gene-directed enzyme prodrug therapy” (J Med Chem, 2003)
